Measurements taken from PubChem BioAssay AID1224905 (ICCB-Longwood Screening Facility, Harvard Medical School, 2016).
Among all 210,000 compounds or so, about 880 (0.42%) were called active.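 How the source made its calls: active means replicate mean at 85% of control or lower with very high polarization wells dropped (limit read from the data); inactive means the rest.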 The full list was thinned out, with actives kept by preference.

Protein sequences, listed by entry. Tags and fused reporters are not part of them.
UniProt P08753, whole entry, looked up: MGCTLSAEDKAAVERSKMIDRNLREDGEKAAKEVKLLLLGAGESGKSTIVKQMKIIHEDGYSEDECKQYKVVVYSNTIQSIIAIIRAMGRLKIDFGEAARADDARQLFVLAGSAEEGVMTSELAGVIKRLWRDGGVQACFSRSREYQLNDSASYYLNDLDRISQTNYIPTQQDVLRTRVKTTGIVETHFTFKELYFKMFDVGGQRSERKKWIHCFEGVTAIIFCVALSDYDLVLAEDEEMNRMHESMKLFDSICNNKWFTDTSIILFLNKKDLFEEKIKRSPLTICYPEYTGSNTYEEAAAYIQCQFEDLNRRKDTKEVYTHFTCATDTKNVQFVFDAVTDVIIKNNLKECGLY

Molecular target: Guanine nucleotide-binding protein G(i) subunit alpha-3 (Rattus norvegicus) (UniProt P08753)
Experiment: inhibitors of GIV peptide binding to Galpha-i3, primary screen, biochemical, fluorescence polarization, FITC-GIV GBA peptide, rat Galphai3 (AID 1224905);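 further: lower values mean more displacement of the GIV peptide from Galpha-i3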
Settings: 90 min, hits give low values

Q: Which percent of control (FP) does the source give for CN1CCc2c(c(S)[nH]c(=S)c2C#N)C1 here?
A: 35% (active)

Q: Which percent of control (FP) does the source give for O=C(NCCN1CCOCC1)c1cc2cccnc2n(Cc2ccccc2)c1=O here?
A: 108% [scaled: aluminum fluoride 0%, vehicle 100%] (inactive)

Q: How did the percent of control (FP) turn out when CCOC(=O)C1CC2CCCN2C12C(=O)N(Cc1ccccc1)c1ccccc12 (stereo not given) was run?
A: 101% (inactive)

Q: Which percent of control (FP) does the source give for O=c1c2ccccc2nc(COc2ccc(Cl)cc2)n1-c1ccc(Br)cn1 here?
A: 98.1% (inactive)

Q: Which percent of control (FP) does the source give for Cc1nc2nc(-c3ccc(C(C)(C)C)cc3)nn2c(C)c1CC(=O)N1CCN(CCO)CC1 here?
A: 102% [scaled: aluminum fluoride 0%, vehicle 100%] (inactive)
